Measurements published in PMC7700221, “Antiproliferative Homoleptic and Heteroleptic Phosphino Silver(I) Complexes: Effect of Ligand Combination on Their Biological Mechanism of Action” (Molecules, 2020).

Key:
human TrxR1 = human TrxR1 (Homo sapiens, UniProt Q16881)
[1] = system: BxPC3 pancreatic cancer cells
[2] = system: MCF-7 breast cancer cells
[3] = system: HCT-15 colon cancer cells
[4] = system: A431 cervical carcinoma cells
[5] = system: C13* cisplatin-resistant ovarian cancer cells
[6] = system: 2008 ovarian cancer cells
TrxR = conditions: in vitro; cited from earlier work

| Substance | IC50 (human TrxR1) [µM] | IC50 (A549 lung cancer cells) [µM] | IC50 [1] [µM] | IC50 (A375 melanoma cells) [µM] | IC50 [2] [µM] | IC50 [3] [µM] | IC50 [4] [µM] | IC50 [5] [µM] | IC50 [6] [µM] | TrxR IC50 (TrxR) |
| --- | --- | --- | --- | --- | --- | --- | --- | --- | --- | --- |
| AgNO3 | 0.0024 | – | – | – | – | – | – | – | – | – |
| [Ag(PPh3)4]BF4 | 0.0032 | 3 | 3.1 | 3.2 | 5.1 | 3.4 | 2 | 6.1 | 4.2 | – |
| [Ag(PTA)4]BF4 | 0.0093 | 10.2 | 13.2 | 8.2 | 11.5 | 10.2 | 9.3 | 10.9 | 9.23 | – |
| [Ag(DAPTA)4]BF4 | 0.0072 | 8.5 | 7.5 | 9.1 | 11.3 | 16.2 | 11.2 | 13.4 | 10.3 | – |
| [Ag(PCN)2]BF4 | 0.0024 | 5.5 | 3.1 | 5.3 | 4 | 3.6 | 2.9 | 4.1 | 3.1 | – |
| [Ag(PTA)4]PF6 | – | – | – | – | – | – | – | – | – | nanomolar range |
| [HB(pz)3]Ag(DAPTA) | 0.0035 | 7.5 | 7.6 | 9.2 | 7.4 | 7.6 | 6.7 | 8.4 | 8.9 | – |
| [HB(pz)3]Ag(PTA-SO2) | 0.0026 | 8.3 | 5.1 | 5.2 | 5.1 | 7.4 | 4.5 | 5.6 | 6.3 | – |
| [Ag(PTA-SO2)4]BF4 | – | 13.2 | 5.3 | 6.3 | 12.2 | 17.7 | 4.1 | 16.3 | 13.2 | – |
| [HB(pz)3]Ag(PPh3) | 0.0033 | 2.1 | 4.4 | 2.2 | 2.9 | 2.1 | 1.5 | 2.1 | 2.02 | – |
| [HB(pz)3]Ag(PCN) | 0.0027 | 4.1 | 5.6 | 8.9 | 5.1 | 3.3 | 2.9 | 6.5 | 7.8 | – |
| [HB(pz)3]Ag(PTA) | 0.0028 | 5.1 | 6.6 | 8.1 | 6.5 | 8.5 | 10.3 | 7.4 | 6.7 | – |
